Source: article PMC2900185 (Biochemistry, 2010)

System: S. cerevisiae strain A3365 expressing C-terminally truncated Ste2p
Test: Growth arrest halo assay
Type: cell-based, Saccharomyces cerevisiae

[Lys^7,Phe^13(2,3,4,5,6-F5)]α-factor
lowest concentration at which a halo formed (did not form a halo until this concentration): 12.5 µM | fold less active than α-factor in halo assay (from the concentrations giving an 18 mm halo): about 130 fold
